{"sequences": {"note": "By UniProt entry, the sequences of proteins in these tests, tags left out.", "UniProt P15056, whole entry V600E": "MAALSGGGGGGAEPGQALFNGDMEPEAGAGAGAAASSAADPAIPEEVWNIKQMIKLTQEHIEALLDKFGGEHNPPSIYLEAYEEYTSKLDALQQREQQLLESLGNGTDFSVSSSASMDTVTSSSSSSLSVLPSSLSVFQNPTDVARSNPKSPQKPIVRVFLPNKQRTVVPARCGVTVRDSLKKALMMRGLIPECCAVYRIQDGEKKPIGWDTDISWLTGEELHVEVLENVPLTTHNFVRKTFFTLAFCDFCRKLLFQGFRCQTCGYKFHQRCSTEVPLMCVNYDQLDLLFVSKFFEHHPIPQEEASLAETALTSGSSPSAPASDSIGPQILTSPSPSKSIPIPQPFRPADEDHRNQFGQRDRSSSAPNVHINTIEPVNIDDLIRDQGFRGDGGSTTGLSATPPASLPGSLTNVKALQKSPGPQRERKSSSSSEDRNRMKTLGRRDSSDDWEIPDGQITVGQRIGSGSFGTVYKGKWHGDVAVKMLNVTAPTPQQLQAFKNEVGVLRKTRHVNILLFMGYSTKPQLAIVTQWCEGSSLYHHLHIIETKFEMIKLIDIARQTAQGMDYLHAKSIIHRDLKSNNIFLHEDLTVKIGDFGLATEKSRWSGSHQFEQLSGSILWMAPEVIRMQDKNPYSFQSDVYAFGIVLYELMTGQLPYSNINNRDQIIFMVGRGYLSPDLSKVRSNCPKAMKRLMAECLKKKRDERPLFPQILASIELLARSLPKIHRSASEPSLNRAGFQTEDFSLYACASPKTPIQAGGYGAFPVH"}, "source": "patent US9694016B2", "target": "b-Raf (V600E) (Homo sapiens (Human), UniProt P15056, V600E)", "conditions": "tested form: TFA", "data": [{"compound": "Cc1ccc(NC(=O)c2cccc(S(C)(=O)=O)c2)cc1-c1cc2[nH]cnc2c(N2CCOCC2)n1", "values": [{"measurement": "IC50", "result": 2.7, "unit": "nM"}]}]}
